Experimental data published in patent US20250304596A1, “PYRAZINE DERIVATIVES AND USES THEREOF” (FOGHORN THERAPEUTICS INC., priority 2022, published 2025).

Protein sequences, listed by entry. Tags and fused reporters are not part of them.
UniProt P51531, whole entry: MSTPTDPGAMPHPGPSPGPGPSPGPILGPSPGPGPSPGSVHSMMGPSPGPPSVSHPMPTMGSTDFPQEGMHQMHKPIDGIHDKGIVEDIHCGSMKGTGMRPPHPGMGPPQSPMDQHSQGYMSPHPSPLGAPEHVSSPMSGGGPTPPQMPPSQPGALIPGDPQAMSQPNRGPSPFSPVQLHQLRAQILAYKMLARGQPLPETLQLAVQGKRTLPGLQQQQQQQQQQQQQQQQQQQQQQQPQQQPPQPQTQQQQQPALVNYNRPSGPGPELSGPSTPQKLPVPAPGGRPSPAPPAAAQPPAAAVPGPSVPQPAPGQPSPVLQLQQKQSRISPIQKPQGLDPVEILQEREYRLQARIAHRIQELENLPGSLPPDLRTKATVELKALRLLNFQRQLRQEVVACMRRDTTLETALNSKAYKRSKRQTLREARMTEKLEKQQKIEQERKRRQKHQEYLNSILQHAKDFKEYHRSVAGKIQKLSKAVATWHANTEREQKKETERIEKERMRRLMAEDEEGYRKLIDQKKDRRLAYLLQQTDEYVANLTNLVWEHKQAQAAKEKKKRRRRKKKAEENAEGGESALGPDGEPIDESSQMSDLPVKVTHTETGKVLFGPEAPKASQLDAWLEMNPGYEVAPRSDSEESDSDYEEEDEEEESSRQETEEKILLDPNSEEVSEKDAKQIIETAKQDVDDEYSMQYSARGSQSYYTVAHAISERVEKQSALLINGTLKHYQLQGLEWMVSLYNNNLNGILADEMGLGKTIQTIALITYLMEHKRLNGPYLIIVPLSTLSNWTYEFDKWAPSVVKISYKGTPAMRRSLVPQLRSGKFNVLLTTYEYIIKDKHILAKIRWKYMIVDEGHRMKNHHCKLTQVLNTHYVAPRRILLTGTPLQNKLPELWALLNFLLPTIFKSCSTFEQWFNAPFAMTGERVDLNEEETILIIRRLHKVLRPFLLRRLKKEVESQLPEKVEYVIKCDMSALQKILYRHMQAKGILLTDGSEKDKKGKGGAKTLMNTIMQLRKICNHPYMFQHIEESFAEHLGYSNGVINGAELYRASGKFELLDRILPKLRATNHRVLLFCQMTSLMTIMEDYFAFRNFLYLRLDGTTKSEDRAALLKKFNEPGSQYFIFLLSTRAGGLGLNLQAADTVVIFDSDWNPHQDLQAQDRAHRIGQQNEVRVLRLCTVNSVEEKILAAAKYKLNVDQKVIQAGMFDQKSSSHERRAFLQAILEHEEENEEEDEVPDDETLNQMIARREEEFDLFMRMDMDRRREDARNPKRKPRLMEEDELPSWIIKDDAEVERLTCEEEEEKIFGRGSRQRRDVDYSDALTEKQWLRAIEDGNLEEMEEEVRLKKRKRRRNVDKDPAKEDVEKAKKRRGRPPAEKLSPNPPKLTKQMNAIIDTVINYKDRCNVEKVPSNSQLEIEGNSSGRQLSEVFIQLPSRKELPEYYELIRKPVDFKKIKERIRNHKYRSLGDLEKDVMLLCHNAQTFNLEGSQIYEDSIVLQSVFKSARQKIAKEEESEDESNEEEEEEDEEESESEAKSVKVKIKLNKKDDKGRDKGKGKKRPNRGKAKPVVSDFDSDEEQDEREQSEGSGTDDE
UniProt P51532, whole entry: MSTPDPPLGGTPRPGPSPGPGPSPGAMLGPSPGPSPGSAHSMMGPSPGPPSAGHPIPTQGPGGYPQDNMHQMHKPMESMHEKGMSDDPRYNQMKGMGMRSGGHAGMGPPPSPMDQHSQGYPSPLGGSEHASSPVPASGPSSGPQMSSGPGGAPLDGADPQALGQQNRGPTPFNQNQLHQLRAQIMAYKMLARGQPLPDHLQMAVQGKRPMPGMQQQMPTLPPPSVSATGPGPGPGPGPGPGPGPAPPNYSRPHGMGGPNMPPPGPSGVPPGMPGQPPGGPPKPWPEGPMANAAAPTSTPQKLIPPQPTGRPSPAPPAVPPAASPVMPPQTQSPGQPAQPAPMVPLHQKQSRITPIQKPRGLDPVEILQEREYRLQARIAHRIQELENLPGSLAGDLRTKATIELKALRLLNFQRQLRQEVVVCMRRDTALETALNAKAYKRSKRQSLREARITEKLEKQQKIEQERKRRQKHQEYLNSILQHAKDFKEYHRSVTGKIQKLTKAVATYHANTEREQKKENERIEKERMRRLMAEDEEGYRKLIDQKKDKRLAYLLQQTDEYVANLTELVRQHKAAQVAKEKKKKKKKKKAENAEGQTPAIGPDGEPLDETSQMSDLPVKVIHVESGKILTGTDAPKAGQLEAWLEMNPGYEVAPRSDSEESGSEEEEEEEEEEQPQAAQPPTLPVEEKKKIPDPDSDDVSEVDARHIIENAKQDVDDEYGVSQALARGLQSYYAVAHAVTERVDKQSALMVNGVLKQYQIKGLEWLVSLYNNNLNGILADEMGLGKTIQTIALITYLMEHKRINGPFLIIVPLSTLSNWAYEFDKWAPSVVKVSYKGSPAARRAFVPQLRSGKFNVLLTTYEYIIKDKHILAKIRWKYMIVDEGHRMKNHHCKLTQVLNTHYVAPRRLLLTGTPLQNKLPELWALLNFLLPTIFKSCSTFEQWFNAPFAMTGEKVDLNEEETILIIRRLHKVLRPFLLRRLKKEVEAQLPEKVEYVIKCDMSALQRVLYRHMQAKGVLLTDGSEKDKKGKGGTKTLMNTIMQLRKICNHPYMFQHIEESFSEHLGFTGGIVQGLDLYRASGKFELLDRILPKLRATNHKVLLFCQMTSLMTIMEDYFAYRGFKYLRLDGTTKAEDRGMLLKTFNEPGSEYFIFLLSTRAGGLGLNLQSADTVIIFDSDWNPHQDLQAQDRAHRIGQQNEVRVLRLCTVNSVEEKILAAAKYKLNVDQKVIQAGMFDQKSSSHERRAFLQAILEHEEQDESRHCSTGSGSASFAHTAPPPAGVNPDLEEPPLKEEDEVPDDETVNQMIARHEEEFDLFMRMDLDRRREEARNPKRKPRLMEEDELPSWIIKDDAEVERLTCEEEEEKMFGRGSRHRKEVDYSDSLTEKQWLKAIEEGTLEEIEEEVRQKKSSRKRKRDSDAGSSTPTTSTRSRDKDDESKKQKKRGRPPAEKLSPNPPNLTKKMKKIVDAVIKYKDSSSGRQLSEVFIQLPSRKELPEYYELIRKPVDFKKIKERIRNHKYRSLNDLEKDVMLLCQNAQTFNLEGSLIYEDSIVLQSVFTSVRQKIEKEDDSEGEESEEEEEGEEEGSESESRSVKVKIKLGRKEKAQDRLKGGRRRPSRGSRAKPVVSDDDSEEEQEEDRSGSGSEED

Assays:
HiBit-BRM fusion protein = HiBit-BRM fusion protein (Homo sapiens, UniProt P51531); assay: HiBiT-BRM cell-based degradation assay (Nano-Glo HiBiT Lytic Detection, 24 h)
Procedure: (§1) Procedure: A stable HeLa cell line expressing HiBiT-BRM was generated. On day 0, 5000 cells were seeded in 40 μL of media into each well of 384-well cell culture plates. On day 1, cells were treated with 120 nL DMSO or 120 nL of 3-fold serially DMSO-diluted compounds (10 points in duplicate with 30 μM as final top dose). Subsequently plates were incubated for 24 h in a standard tissue culture incubator and equilibrated at room temperature for 15 minutes. Nano-Glo HiBiT Lytic Detection System (Promega N3050) reagent was freshly prepared and 20 ul was added to each well. Upon addition of this LgBit-containing reagent, the HiBiT and LgBiT proteins associate to form the luminescent NanoBiT Iuciferase. The plates were shaken for 10 minutes at room temperature and the bioluminescence read using an EnVision plate reader (PerkinElmer).
(§2) The degradation % was calculated using the following formula: % degradation=100%-100%×(LumSample−LumLC)/(LumHC−LumLC). DMSO treated cells are employed as High Control (HC) and 2 μM of a known BRM/BRG1 degrader standard treated cells are employed as Low Control (LC).

[1] = target: HiBit-BRG1 fusion protein (Homo sapiens, UniProt P51532); assay: HiBiT-BRG1 cell-based degradation assay (Nano-Glo HiBiT Lytic Detection, 24 h); conditions: stable HeLa cell line expressing HiBit-BRG1 and LgBit
Procedure: as §1
For measurement of BRG1 degradation, a stable HeLa cell line expressing HiBit-BRG1 and LgBit was generated. The same protocol as above was then followed.
as §2

Cc1cc(-c2cc([C@H](C(=O)N3C[C@H](O)C[C@H]3C(=O)N[C@@H](C)c3ccc(-c4scnc4C)cc3)C(C)C)on2)cnc1N1CC[C@H](c2sc3nnc(-c4ccccc4O)cc3c2C)C1
IC50 (HiBit-BRM fusion protein; read-out: BRM HiBit Degradation IC50, stable HeLa cell line expressing HiBiT-BRM): < 0.01 µM | BRM HiBit Degradation Maximum (%) (HiBit-BRM fusion protein; stable HeLa cell line expressing HiBiT-BRM): A (“A” indicates maximum degradation ≥75%) | BRG1 HiBit Degradation Maximum (%) [1]: C (“C” indicates maximum degradation <50%)
